Experimental data reported in ChEMBL document CHEMBL1795251, “Structure-based design of thienobenzoxepin inhibitors of PI3-kinase” (Bioorg Med Chem Lett, 2011).

By UniProt entry, the sequences of proteins in these tests, tags left out.
UniProt P42336, whole entry: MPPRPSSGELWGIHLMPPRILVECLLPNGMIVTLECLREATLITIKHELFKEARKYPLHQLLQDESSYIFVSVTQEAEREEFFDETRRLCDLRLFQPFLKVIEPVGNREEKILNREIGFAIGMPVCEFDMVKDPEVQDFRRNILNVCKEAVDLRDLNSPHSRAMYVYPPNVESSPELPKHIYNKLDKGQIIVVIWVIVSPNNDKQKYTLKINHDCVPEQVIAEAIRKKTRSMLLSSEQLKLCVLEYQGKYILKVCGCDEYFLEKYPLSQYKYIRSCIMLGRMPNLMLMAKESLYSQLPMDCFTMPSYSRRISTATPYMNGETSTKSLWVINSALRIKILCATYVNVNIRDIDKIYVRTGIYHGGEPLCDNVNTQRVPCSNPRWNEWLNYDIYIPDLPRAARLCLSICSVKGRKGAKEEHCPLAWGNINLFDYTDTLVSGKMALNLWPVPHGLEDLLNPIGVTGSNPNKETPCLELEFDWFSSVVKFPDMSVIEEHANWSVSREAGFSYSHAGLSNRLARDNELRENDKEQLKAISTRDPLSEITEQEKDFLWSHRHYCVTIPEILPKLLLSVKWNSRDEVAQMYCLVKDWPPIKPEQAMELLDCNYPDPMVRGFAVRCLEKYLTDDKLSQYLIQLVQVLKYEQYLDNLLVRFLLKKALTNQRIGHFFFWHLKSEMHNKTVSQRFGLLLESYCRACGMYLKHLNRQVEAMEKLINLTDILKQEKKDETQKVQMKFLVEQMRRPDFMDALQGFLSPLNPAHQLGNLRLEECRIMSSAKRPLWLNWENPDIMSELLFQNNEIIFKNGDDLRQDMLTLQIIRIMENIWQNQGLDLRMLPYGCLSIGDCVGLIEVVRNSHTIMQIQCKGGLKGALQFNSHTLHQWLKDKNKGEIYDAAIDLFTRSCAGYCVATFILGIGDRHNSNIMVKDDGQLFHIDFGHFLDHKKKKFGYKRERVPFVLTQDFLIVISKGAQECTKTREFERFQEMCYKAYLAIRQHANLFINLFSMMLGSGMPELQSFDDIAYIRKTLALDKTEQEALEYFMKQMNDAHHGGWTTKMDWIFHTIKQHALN

Target: Phosphatidylinositol 4,5-bisphosphate 3-kinase catalytic subunit alpha isoform (Homo sapiens, UniProt P42336)

Compound: CN(C(=O)c1cc2c(s1)-c1ccccc1OC2)c1ccccc1Cl
- IC50: 108 nM
